Laboratory results published in patent US20250195475A1, “CDK2 INHIBITOR AND PREPARATION METHOD AND USE THEREOF” (INVENTISBIO CO., LTD., priority 2022, published 2025).
Where two headings read alike, the source gives them in different places.

The chains behind the UniProt entries cited, without tags or fusion partners.
UniProt P06493, whole entry: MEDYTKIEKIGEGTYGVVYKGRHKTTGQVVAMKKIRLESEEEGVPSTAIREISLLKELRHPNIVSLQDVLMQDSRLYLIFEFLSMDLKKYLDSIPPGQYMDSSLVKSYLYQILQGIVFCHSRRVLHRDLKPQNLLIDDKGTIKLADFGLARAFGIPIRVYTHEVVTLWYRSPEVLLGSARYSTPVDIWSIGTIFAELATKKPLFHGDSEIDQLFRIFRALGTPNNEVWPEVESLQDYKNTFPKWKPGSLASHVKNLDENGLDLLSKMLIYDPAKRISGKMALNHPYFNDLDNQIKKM
UniProt P50750, whole entry: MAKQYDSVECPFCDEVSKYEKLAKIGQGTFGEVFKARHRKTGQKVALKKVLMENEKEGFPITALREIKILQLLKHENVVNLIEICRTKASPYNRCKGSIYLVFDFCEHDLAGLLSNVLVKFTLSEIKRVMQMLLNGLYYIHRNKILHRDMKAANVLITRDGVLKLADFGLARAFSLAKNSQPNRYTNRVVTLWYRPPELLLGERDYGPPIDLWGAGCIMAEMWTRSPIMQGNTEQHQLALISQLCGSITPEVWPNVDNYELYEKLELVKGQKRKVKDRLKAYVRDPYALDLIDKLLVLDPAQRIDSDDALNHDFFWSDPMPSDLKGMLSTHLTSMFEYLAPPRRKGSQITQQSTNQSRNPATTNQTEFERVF
UniProt O60563, whole entry partner: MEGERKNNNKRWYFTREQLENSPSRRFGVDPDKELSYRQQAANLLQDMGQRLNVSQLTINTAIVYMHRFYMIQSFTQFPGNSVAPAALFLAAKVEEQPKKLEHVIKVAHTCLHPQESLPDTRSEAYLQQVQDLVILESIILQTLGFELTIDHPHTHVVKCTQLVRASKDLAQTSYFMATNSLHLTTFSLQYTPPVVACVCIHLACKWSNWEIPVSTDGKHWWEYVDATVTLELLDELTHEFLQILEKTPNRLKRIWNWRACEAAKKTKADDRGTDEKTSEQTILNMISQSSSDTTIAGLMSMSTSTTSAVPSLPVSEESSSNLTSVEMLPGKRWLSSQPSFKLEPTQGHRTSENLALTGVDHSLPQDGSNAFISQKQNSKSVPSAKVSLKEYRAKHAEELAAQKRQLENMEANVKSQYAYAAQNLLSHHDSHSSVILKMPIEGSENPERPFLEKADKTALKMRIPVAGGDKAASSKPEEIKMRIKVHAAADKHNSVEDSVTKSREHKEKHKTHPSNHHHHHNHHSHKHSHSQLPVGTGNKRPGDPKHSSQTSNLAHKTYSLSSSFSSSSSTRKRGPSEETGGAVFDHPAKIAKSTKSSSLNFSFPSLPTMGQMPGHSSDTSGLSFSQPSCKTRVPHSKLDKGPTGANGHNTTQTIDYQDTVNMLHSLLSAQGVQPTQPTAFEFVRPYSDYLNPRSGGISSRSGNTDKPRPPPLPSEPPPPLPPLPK
UniProt P14635, whole entry partner: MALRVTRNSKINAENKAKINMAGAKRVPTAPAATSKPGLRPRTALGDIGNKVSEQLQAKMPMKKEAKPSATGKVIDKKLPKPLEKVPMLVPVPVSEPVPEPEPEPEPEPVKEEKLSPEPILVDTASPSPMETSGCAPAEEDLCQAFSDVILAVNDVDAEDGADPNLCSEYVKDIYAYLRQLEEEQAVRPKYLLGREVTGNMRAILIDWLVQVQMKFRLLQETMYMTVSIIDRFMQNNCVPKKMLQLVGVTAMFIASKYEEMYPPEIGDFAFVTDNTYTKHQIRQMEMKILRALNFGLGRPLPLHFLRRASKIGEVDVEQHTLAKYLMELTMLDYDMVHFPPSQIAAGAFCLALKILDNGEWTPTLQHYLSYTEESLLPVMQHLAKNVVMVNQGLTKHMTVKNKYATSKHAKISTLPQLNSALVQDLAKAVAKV

What was measured:
[1] = biological target: CDK2/CyclinE1 (Homo sapiens (Human), UniProt P24941); test: CDK2 kinase assay (TR-FRET)
[2] = biological target: CDK1/CyclinB1 (Homo sapiens (Human), UniProt P06493); test: CDK1 kinase assay (TR-FRET); conditions: read-out: CDK1 IC50, CDK1/CyclinB 7.5 nM, ATP 17 μM
Method: (§1) The purpose of these assays is to evaluate the inhibition of small molecule inhibitors by using TR-FRET assay.
(§2) Compound Preparation. Dissslove the compounds into DMSO solution to make 10 mM DMSO stock. Serially dilute the stock solution from highest concentration down to lowest in DMSO to make the compound stock plate (100× stock plates). To make 5× compound intermediate plate, add 38 μL of assay buffer (50 mM HEPES, pH 7.5, 0.05 mg/mL BSA, 10 mM MgCl2, 1 mM EGTA, 0.01% Tween-20, 2 mM DTT) into each well of the V-bottom plate; then transfer 2 μL of the stock compound solution of each concentration from the compound stock plate (100× stock), and mix well.
(§3) Enzyme reaction. Transfer 2 μL compound from 5× intermediate plate into assay plate, then add 4 μL/well 2.5× Enzyme mix to assay plate, incubation for 10 min at room temperature. For positive control wells, add 4 μL/well assay buffer instead of Enzyme mix. Then add 4 μL/well 2.5× Substrate mix to assay plate, and incubation at 25° C. for 30 min at room temperature. […]
(§4) Inhibition rate (IR) of the tested compounds was determined by the following formula: IR (%)=(average High control−compound well)/(average High control−average Low control)*100%. […]

[3] = biological target: CDK9/CyclinT1 (Homo sapiens (Human), UniProt P50750); test: CDK9 kinase assay (TR-FRET); conditions: read-out: CDK9 IC50, CDK9/CyclinT1 1.0 nM, ATP 3.5 μM
Method: as §1, §2, §3, §4

[4] = read-out: CDK2 IC50, CDK2/CyclinE1 0.5 nM, ATP 50 μM

| Compound | IC50 [1, 4] [µM] | further results |
| --- | --- | --- |
| C#C[C@H]1C[C@@H]1C(=O)Nc1cc([C@H]2CC[C@@H](OC(=O)NC3(C)CCC3)C2)[nH]n1 | 0.0004 |  |
| CC(=O)[C@H]1C[C@@H]1C(=O)Nc1cc([C@H]2CC[C@@H](OC(=O)NC3(C)CCC3)C2)[nH]n1 | 0.0012 |  |
| CC(C)NC(=O)O[C@@H]1CC[C@H](c2cc(NC(=O)C34CC(C(N)=O)(C3)C4)n[nH]2)C1 | 0.0032 | IC50 ([1]; read-out: CDK2 IC50, CDK2/CyclinE1 0.5 nM, ATP 50 μM, listed as 21): 0.0818 µM |
| CC(C)NC(=O)O[C@@H]1CC[C@H](c2cc(NC(=O)C3CC34CCOC4)n[nH]2)C1 (some centres unmarked) | 0.0209 |  |
| CC(C)NC(=O)O[C@@H]1CC[C@H](c2cc(NC(=O)[C@@H]3CCN(S(=O)(=O)C(F)F)C3)n[nH]2)C1 | 0.0027 |  |
| CC(C)NC(=O)O[C@@H]1CC[C@H](c2cc(NC(=O)[C@H]3C[C@@H]3CN3CCOCC3)n[nH]2)C1 |  | IC50 ([1]; read-out: CDK2 IC50, CDK2/CyclinE1 0.5 nM, ATP 50 μM, tested form: formate): 0.0065 µM |
| CC(C)NC(=O)O[C@@H]1CO[C@H](c2cc(NC(=O)Cc3cc(F)cc(F)c3)n[nH]2)C1 (relative stereo) | 0.0008 |  |
| COCc1cc(C(=O)Nc2cc([C@H]3CC[C@@H](N4CC(C)(C)NC4=O)C3)[nH]n2)n(C)n1 (relative stereo) [89] | 0.0253 |  |
| COCc1cc(C(=O)Nc2cc([C@H]3CC[C@@H](N4CC(C)(C)NC4=O)C3)[nH]n2)n(C)n1 (relative stereo) [Compound 88] | 0.024 |  |
| COCc1cc(C(=O)Nc2cc([C@H]3CC[C@@H](OC(=O)NC4COC5(CCC5)C4)C3)[nH]n2)n(C)n1 (single isomer, unassigned) |  | IC50 [2]: 142 nM; IC50 [3]: 963 nM |
| COC[C@H]1C[C@@H]1C(=O)Nc1cc(C2CC(OC(=O)NC(C)C)CO2)[nH]n1 (single isomer, unassigned) [54] | 0.0045 |  |
| COC[C@H]1C[C@@H]1C(=O)Nc1cc(C2CC(OC(=O)NC(C)C)CO2)[nH]n1 (single isomer, unassigned) [55] | 0.0187 |  |
